Data taken from patent publication US20230355705A1, “DISCOVERY OF YEATS2 YEATS DOMAIN INHIBITORS AS NOVEL ANTI-CANCER AGENTS” (The University of Hong Kong, priority 2022, published 2023).

Chains of the proteins cited; added tags and fusions are not shown. Residues count along the entry.
UniProt Q9ULM3, 201-332 limits assumed: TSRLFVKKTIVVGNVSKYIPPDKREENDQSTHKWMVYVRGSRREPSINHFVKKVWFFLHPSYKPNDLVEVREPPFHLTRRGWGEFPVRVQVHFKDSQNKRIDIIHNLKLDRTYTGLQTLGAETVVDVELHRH

Assays:
YEATS2 YEATS domain = YEATS2 YEATS domain (Homo sapiens, UniProt Q9ULM3); experiment: competitive photo-cross-linking assay; conditions: toward YEATS2 YEATS, values in text
Procedure: The probes in the absence or presence of different concentrations of competitors were incubated with recombinant proteins (5 or 20 ng/µL) in binding buffer (50 mM HEPES, 150 mM NaCl, 2 mM MgCl2, 0.1% Tween-20, 20% glycerol, pH 7.5, with 50 ng/µL BSA) for 10 min at 4° C. Then, the samples were irradiated at 365 nm using UV lamp for 20 min in 96-well on ice.
To the prepared photo-cross-linking samples, we added 100 µM rhodamine-N3 for in-gel fluorescence (10 mM stock in DMSO), followed by 1 mM TCEP (freshly prepared 50 mM stock in H2O) and 100 µM TBTA (10 mM stock in DMSO); finally, the reactions were initiated by the addition of 1 mM CuSO4 (freshly prepared 50 mM stock in H2O). The reactions were incubated for 1 h at room temperature (22 to 25° C.) with regular vortexing. The reactions were quenched by adding 5 volumes of ice-cold acetone and placed at — 20° C. overnight to precipitate proteins.
Samples after protein precipitation were centrifuged at 13,000 × g for 5 min at 4° C. The supernatant was discarded, and the pellet was washed with ice-cooled acetone and air-dried for 10 min. The proteins were resuspended in 1 × LDS sample loading buffer (Invitrogen, Waltham, MA) with 50 mM DTT and heated at 95° C. for 8 min. Samples were then resolved by SDS-PAGE. The labeled proteins were visualized by scanning the gel on a Typhoon 9410 variable mode imager (excitation 532 nm, emission filter 580 nm).
YEATS domain of YEATS2 is newly identified as histone benzoylation reader. YEATS2 YEATS preferentially recognizes H3K27bz (Kd = 21.57 µM) with higher binding affinity than H3K27cr (Kd = 37.38 µM) and H3K27ac (Kd = 131.13 µM). Based on the decapeptide (H322-32K27bz), we designed a photoaffinity probe H3K27bz-Dzyne (FIG. 1A) in which the Ala24 was replaced by a diazirine-containing photo reactive amino acid (photo-leu). […] If the inhibitor can occupy the same binding pocket with probe, the fluorescent intensity would decrease (FIG. 1B).

A549 cells [1] = experiment: colony formation assay A549; conditions: A549, 14 days
Procedure: A549 and H1299 cells were seeded in 6-well tissue culture plates (200 cells/well) and grown for 14 days. Colonies were fixed with glutaraldehyde (6.0% v/v), stained with crystal violet (0.5% w/v) and photographed.
Cancer cells usually loss of growth control by unlimited division. We next sought to test whether our inhibitor could inhibit the proliferation in NSCLC cells. In clonogenic assay of A549 cells (FIG. 8A), compound MsKbr-bfSAP and MsKcl-bfSAP incubated cells for 14 days, then colonies are fixed by glutaraldehyde and stained by crystal violet. From the result (FIG. 8B), treated cells formed fewer colonies compared to the control cells

H1299 cells = experiment: cell growth inhibition assay (ATPlite) H1299; conditions: 50 µM, 3 days
Procedure: (§1) A total of 2000 cells were seeded in a 96-well plate in 100 µL of the medium, treated with DMSO or compounds at indicated concentrations for 3 days. Cell viability was measured using the ATPlite 1step Luminescence Assay System (PerkinElmer) according to the manufacturer’s instructions. Surviving cells were calculated as % relative to DMSO-treated cells.
(§2) To assess the cell permeability behavior of inhibitors, the cellular effects were analyzed in H1299 and A549 cells. We treated cells with different concentration of inhibitors for 3 days. Cell viability was measured using the ATPlite 1step Luminescence Assay System (PerkinElmer) according to the manufacturer’s instructions. Surviving cells were calculated as % relative to DMSO-treated cells.

A549 cells [2] = experiment: cell growth inhibition assay (ATPlite) A549; conditions: 50 µM, 3 days
Procedure: as §1, §2

Row | SMILES | IC50 (YEATS2 YEATS domain) | colony formation (A549 cells [1]) | inhibition of cell survival (H1299 cells) | inhibition of cell survival (A549 cells [2])
1 | C[C@H](NC(=O)[C@H](Cc1ccccc1F)NC(=O)[C@H](CCCCNC(=O)c1cc2ccc(Br)cc2o1)NS(C)(=O)=O)C(=O)N1CCCCC1 | 650 nM | stronger inhibition on cell proliferation | – | –
2 | C[C@H](NC(=O)[C@H](CO)NC(=O)[C@H](CCCCNC(=O)c1cc2ccc(Br)cc2o1)NS(C)(=O)=O)C(=O)N1CCCCC1 | 130 nM | – | – | –
3 | C[C@H](NC(=O)[C@H](Cc1ccc([N+](=O)[O-])cc1)NC(=O)[C@H](CCCCNC(=O)c1cc2ccc(Br)cc2o1)NS(C)(=O)=O)C(=O)N1CCCCC1 | 520 nM | stronger inhibition on cell proliferation | potent inhibition | potent inhibition
4 | C[C@@H](C(=O)N1CCCCC1)N(C)C(=O)[C@H](Cc1ccc(C#N)cc1)NC(=O)[C@H](CCCCNC(=O)c1cc2ccc(Br)cc2o1)NS(C)(=O)=O | 580 nM | stronger inhibition on cell proliferation | potent inhibition | potent inhibition
